Membrane permeability of cyclic peptides

Values of Furukawa et al. 2016, doi:10.1021/acs.jmedchem.6b01246, as listed in CycPeptMPDB.

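Conditions beyond the assay type are not listed; see the original paper. Other peptides of the study may be missing here. Peptides that the database sets to -10, its floor, are left out.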

PAMPA is the parallel artificial membrane permeability assay, which has no cells and reads passive diffusion.
P is given in units of 10^-6 cm/s (from log10 values with two decimals); larger means faster passage.

| PAMPA (10^-6 cm/s) | structure (SMILES) |
|---|---|
| 0.19 | CCCCCN1CC(=O)N(C)[C@@H](CC(C)C)C(=O)N[C@@H](CCCC)C(=O)N2CCC[C@@H]2C(=O)N(CCCCc2ccccc2)CC(=O)N[C@@H](CC(C)C)C1=O |
| 2.6 | CCCC[C@@H]1NC(=O)[C@H](CC(C)C)N(C)C(=O)CN(CCc2cccnc2)C(=O)[C@H](Cc2ccccc2)NC(=O)CN(CCC)C(=O)[C@H]2CCCN2C1=O |
| 0.5 | CCCC[C@@H]1NC(=O)[C@H](CC(C)C)N(C)C(=O)CN(CCOc2ccccc2)C(=O)[C@H](C)NC(=O)CN(Cc2ccc(Cl)cc2)C(=O)[C@H]2CCCN2C1=O |
| 0.011 | CCCC[C@@H]1NC(=O)[C@H](CC(C)C)N(C)C(=O)CN(CCOc2ccccc2)C(=O)[C@H](Cc2ccc3ccccc3c2)NC(=O)CN(CC(C)C)C(=O)[C@H]2CCCN2C1=O |
| 0.98 | CCCC[C@@H]1NC(=O)[C@H](CC(C)C)N(C)C(=O)CN(CC2CCCCC2)C(=O)[C@H](C)NC(=O)CN(Cc2ccc(Cl)cc2)C(=O)[C@H]2CCCN2C1=O |
| 3 | CCCC[C@@H]1NC(=O)[C@H](CC(C)C)N(C)C(=O)CN(CC2CCOCC2)C(=O)[C@H](Cc2ccc3ccccc3c2)NC(=O)CN(CC(C)C)C(=O)[C@H]2CCCN2C1=O |
| 5 | CCCC[C@@H]1NC(=O)[C@H](CC(C)C)N(C)C(=O)CN(CCc2cccnc2)C(=O)[C@H](CC(C)C)NC(=O)CN(Cc2ccc3c(c2)OCO3)C(=O)[C@H]2CCCN2C1=O |
| 1.4 | CCCC[C@@H]1NC(=O)[C@H](CC(C)C)N(C)C(=O)CN(CCc2cccnc2)C(=O)[C@H](C)NC(=O)CN(Cc2cc(CC(C)C)on2)C(=O)[C@H]2CCCN2C1=O |
| 0.031 | CCCC[C@@H]1NC(=O)[C@H](CC(C)C)N(C)C(=O)CN(Cc2ccccc2)C(=O)[C@H](Cc2ccccc2)NC(=O)CN(Cc2ccc3c(c2)OCO3)C(=O)[C@H]2CCCN2C1=O |
| 0.39 | CCCC[C@@H]1NC(=O)[C@H](CC(C)C)N(C)C(=O)CN(CCc2cccnc2)C(=O)[C@H](Cc2ccc3ccccc3c2)NC(=O)CN(Cc2ccccc2Cn2cccn2)C(=O)[C@H]2CCCN2C1=O |
| 3.4 | CCCC[C@@H]1NC(=O)[C@H](CC(C)C)N(C)C(=O)CN(CCOc2ccccc2)C(=O)[C@H](Cc2ccccc2)NC(=O)CN(CC)C(=O)[C@H]2CCCN2C1=O |
| 1.6 | CCCCCN1CC(=O)N(C)[C@@H](CC(C)C)C(=O)N[C@@H](CCCC)C(=O)N2CCC[C@@H]2C(=O)N(CCN2CCOCC2)CC(=O)N[C@@H](Cc2ccc3ccccc3c2)C1=O |
| 0.015 | CCCC[C@@H]1NC(=O)[C@H](CC(C)C)N(C)C(=O)CN(CC2CCOCC2)C(=O)[C@H](Cc2ccc3ccccc3c2)NC(=O)CN(Cc2ccc(Cl)cc2)C(=O)[C@H]2CCCN2C1=O |
| 0.058 | CCCC[C@@H]1NC(=O)[C@H](CC(C)C)N(C)C(=O)CN(CC2CCCCC2)C(=O)[C@H](Cc2ccc3ccccc3c2)NC(=O)CN(CCC)C(=O)[C@H]2CCCN2C1=O |
| 0.12 | CCCC[C@@H]1NC(=O)[C@H](CC(C)C)N(C)C(=O)CN(CC2CCCCC2)C(=O)[C@H](CC(C)C)NC(=O)CN(Cc2cc(CC(C)C)on2)C(=O)[C@H]2CCCN2C1=O |
| 1.6 | CCCC[C@@H]1NC(=O)[C@H](CC(C)C)N(C)C(=O)CN(CCCc2cnn(C)c2)C(=O)[C@H](C)NC(=O)CN(Cc2cc(CC(C)C)on2)C(=O)[C@H]2CCCN2C1=O |
| 0.28 | CCCCCN1CC(=O)N(C)[C@@H](CC(C)C)C(=O)N[C@@H](CCCC)C(=O)N2CCC[C@@H]2C(=O)N(Cc2ccc3c(c2)OCO3)CC(=O)N[C@@H](CC(C)C)C1=O |
| 0.17 | CCCC[C@@H]1NC(=O)[C@H](CC(C)C)N(C)C(=O)CN(CCc2cccnc2)C(=O)[C@H](C)NC(=O)CN(Cc2ccccc2Cn2cccn2)C(=O)[C@H]2CCCN2C1=O |
| 0.89 | CCCC[C@@H]1NC(=O)[C@H](CC(C)C)N(C)C(=O)CN(CCCc2cnn(C)c2)C(=O)[C@H](Cc2ccc3ccccc3c2)NC(=O)CN(CCN2CCOCC2)C(=O)[C@H]2CCCN2C1=O |
| 0.13 | CCCC[C@@H]1NC(=O)[C@H](CC(C)C)N(C)C(=O)CN(CC2CCOCC2)C(=O)[C@H](CC(C)C)NC(=O)CN(CCN2CCOCC2)C(=O)[C@H]2CCCN2C1=O |
| 0.26 | CCCC[C@@H]1NC(=O)[C@H](CC(C)C)N(C)C(=O)CN(CCCN2CCCC2=O)C(=O)[C@H](C)NC(=O)CN(Cc2cc(CC(C)C)on2)C(=O)[C@H]2CCCN2C1=O |
| 1.2 | CCCC[C@@H]1NC(=O)[C@H](CC(C)C)N(C)C(=O)CN(CCOC)C(=O)[C@H](C)NC(=O)CN(Cc2ccc3c(c2)OCO3)C(=O)[C@H]2CCCN2C1=O |

Excerpt, the opening 2 entries:

| structure (SMILES) | PAMPA (10^-6 cm/s) |
|---|---|
| CCCCCN1CC(=O)N(C)[C@@H](CC(C)C)C(=O)N[C@@H](CCCC)C(=O)N2CCC[C@@H]2C(=O)N(CCCCc2ccccc2)CC(=O)N[C@@H](CC(C)C)C1=O | 0.19 |
| CCCC[C@@H]1NC(=O)[C@H](CC(C)C)N(C)C(=O)CN(CCc2cccnc2)C(=O)[C@H](Cc2ccccc2)NC(=O)CN(CCC)C(=O)[C@H]2CCCN2C1=O | 2.6 |